# According to BindingDB's records for doi:10.1021/jm800986w (The Scripps Research Institute, 2008):
# The chains behind the UniProt entries cited, without tags or fusion partners. Where a name states a change or a piece, a line headed by the entry shows the natural chain unless it says otherwise.
# UniProt Q5VT25: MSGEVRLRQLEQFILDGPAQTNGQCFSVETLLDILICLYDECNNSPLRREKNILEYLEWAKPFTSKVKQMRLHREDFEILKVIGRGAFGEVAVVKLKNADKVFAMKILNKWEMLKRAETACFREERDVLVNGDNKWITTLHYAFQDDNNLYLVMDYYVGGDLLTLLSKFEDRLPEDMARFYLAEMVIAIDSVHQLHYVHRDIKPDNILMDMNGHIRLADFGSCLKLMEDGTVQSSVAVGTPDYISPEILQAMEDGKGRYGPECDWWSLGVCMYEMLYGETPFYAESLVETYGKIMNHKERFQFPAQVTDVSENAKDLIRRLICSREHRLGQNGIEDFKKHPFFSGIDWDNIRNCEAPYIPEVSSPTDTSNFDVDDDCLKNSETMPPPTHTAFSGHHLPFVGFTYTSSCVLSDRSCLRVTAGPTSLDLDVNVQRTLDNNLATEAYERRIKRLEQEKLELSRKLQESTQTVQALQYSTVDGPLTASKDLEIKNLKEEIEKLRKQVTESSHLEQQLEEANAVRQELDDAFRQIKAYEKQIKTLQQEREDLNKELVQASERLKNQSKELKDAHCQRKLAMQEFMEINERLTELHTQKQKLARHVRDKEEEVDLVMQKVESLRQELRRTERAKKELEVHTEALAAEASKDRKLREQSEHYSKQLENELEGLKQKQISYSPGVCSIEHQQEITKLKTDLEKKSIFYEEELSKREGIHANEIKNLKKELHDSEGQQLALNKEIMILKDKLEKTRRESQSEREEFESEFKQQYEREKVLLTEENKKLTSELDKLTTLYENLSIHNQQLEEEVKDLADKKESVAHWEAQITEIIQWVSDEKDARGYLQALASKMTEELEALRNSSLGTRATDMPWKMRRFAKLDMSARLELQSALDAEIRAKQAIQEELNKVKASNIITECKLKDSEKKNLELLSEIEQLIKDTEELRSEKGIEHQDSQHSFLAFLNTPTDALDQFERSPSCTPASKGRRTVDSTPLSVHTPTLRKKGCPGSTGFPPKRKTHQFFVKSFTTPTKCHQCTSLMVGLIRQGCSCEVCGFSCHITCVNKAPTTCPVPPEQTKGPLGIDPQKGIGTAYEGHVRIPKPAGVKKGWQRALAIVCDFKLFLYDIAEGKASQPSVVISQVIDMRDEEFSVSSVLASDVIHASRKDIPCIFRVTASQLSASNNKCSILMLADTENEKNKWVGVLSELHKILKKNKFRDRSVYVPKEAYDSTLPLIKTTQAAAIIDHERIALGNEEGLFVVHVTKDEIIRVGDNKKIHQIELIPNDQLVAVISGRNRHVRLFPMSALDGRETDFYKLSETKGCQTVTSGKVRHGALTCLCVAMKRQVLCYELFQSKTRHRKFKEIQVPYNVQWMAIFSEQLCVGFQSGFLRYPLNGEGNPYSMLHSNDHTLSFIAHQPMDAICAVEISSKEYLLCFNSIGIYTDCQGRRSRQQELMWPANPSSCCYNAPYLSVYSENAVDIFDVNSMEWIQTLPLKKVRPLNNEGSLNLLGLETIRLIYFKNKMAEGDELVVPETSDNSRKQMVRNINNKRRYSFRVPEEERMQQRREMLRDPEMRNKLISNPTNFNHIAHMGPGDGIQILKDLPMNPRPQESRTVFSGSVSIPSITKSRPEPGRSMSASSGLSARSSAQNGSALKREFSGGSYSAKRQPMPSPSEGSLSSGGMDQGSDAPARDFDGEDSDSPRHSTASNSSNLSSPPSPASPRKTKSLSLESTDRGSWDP
# Target: Serine/threonine-protein kinase MRCK alpha (Homo sapiens, UniProt Q5VT25)
# Assay: MRCK Inhibition Assay
# Details: pH 7.3; 22 °C
structure (smiles),measurement,value
O=C(Nc1nc(-c2ccncc2)cs1)C1COc2ccccc2O1 (stereo unspecified),IC50,4.85 µM
